Data: patent US11912703B2, “6-azaindole compounds” (BRISTOL-MYERS SQUIBB COMPANY, priority 2017, dated 2024)

Sequences of proteins named here, by UniProt entry; tags and fusion partners are left off. Residues count along the entry.
UniProt Q9NYK1, 27-1049: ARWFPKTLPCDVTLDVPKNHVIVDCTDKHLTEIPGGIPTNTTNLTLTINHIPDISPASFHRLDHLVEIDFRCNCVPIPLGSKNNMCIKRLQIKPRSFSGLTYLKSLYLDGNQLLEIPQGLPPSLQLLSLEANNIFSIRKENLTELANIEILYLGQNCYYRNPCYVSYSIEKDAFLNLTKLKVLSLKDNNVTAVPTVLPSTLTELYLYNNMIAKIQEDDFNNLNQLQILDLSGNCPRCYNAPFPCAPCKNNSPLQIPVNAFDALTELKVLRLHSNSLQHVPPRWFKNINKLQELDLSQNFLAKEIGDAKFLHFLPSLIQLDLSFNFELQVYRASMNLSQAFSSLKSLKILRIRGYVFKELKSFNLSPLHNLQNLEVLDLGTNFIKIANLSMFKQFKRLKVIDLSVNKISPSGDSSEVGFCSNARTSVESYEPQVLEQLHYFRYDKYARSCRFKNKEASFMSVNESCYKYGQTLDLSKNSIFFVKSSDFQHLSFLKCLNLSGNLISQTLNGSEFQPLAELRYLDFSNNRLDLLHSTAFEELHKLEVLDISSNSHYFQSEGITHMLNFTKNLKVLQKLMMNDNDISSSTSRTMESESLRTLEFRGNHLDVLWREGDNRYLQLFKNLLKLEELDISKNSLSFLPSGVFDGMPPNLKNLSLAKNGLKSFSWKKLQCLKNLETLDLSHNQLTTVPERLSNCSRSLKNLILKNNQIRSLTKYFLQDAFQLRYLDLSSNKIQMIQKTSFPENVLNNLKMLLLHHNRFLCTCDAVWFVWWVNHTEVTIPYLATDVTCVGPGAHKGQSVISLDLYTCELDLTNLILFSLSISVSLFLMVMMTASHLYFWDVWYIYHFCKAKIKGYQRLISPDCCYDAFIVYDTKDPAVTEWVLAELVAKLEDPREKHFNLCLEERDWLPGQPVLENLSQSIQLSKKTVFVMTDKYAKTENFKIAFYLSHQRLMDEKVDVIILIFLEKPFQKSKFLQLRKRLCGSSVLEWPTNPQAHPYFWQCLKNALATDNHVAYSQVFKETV

Biological target: human TLR7 (Homo sapiens (Human), UniProt Q9NYK1)
Assay: TLR7 inhibition reporter assay (HEK-Blue SEAP)
Type: cell-based
Conditions: HEK-Blue cells overexpressing human TLR7, gardiquimod 7.5 μM stimulation

COc1cc(-c2[nH]c3cnc(C4CCC(N5CC(OC)C5)CC4)c(C)c3c2C(C)C)cn2ncnc12 (stereo not shown) [Example 180]
IC50: 1.3 nM
